# Cyclic peptide permeability, from CycPeptMPDB

Values of Townsend et al. 2020, doi:10.26434/chemrxiv.13335941.v1, as listed in CycPeptMPDB.

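The data file gives no further conditions (lipid, pH, time, direction or concentration), and values from different papers need not be comparable. Other peptides of the study may be missing here. Entries at the database's floor value (log10 P of -10) are not listed.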

PAMPA measures passive passage through an artificial lipid membrane.
Permeability is given as log10 of P in cm/s; higher (less negative) is more permeable.

CC(C)C[C@@H]1NC(=O)[C@@H](C)N(C)C(=O)[C@H](Cc2ccccc2)NC(=O)[C@H](CC(C)C)N(C)C(=O)[C@H]2CCCN2C(=O)CN(Cc2ccccc2)C1=O is reported with PAMPA -5.14 (log10 cm/s).
CC(C)C[C@@H]1NC(=O)[C@H](C)N(C)C(=O)[C@H]2CCCN2C(=O)[C@H](Cc2ccccc2)NC(=O)[C@@H](CC(C)C)N(C)C(=O)[C@@H]2CCCN2C(=O)[C@@H](CC(C)C)NC1=O is reported with PAMPA -5.71 (log10 cm/s).
CC(C)C[C@H]1NC(=O)C[C@H](Cc2ccccc2)NC(=O)[C@H]2CCCN2C(=O)[C@H](Cc2ccccc2)NC(=O)[C@H](CC(C)C)N(C)C(=O)[C@@H]2CCCN2C(=O)[C@@H](CC(C)C)NC1=O is reported with PAMPA -5.48 (log10 cm/s).
CC(C)C[C@@H]1NC(=O)[C@@H](CC(C)C)N(C)C(=O)[C@@H](C)NC(=O)[C@H](Cc2ccccc2)NC(=O)[C@@H](CC(C)C)NC(=O)[C@@H]2CCCN2C1=O is reported with PAMPA -5.80 (log10 cm/s).
CC(C)C[C@@H]1C(=O)N[C@@H](Cc2ccccc2)CC(=O)N2CCC[C@H]2C(=O)N(C)[C@@H](CC(C)C)C(=O)N[C@@H](Cc2ccccc2)C(=O)N(C)[C@@H](C)C(=O)N1C is reported with PAMPA -4.75 (log10 cm/s).
CC(C)C[C@H]1NC(=O)[C@H](C)NC(=O)[C@H](Cc2ccccc2)NC(=O)[C@@H](CC(C)C)NC(=O)[C@H]2CCCN2C(=O)C[C@H](Cc2ccccc2)NC1=O is reported with PAMPA -5.04 (log10 cm/s).
CCCN1CC(=O)N[C@H](CC(C)C)C(=O)N[C@@H](Cc2ccccc2)CC(=O)N2CCC[C@H]2C(=O)N(C)[C@H](CC(C)C)C(=O)N[C@@H](Cc2ccccc2)C(=O)N2CCC[C@H]2C1=O is reported with PAMPA -5.77 (log10 cm/s).
CC(C)C[C@@H]1NC(=O)[C@@H](CC(C)C)N(C)C(=O)[C@H](C)NC(=O)[C@H](Cc2ccccc2)NC(=O)[C@H](CC(C)C)N(C)C(=O)[C@H]2CCCN2C1=O is reported with PAMPA -4.89 (log10 cm/s).
CC(C)C[C@@H]1NC(=O)[C@@H](CC(C)C)N(C)C(=O)[C@@H](C)NC(=O)[C@H]2CCCN2C(=O)[C@H](Cc2ccccc2)NC(=O)CN(Cc2ccccc2)C(=O)[C@@H]2CCCN2C1=O is reported with PAMPA -5.85 (log10 cm/s).
CC(C)C[C@@H]1C(=O)N(C)[C@@H](CC(C)C)C(=O)N2CCC[C@H]2C(=O)N[C@H](CC(C)C)C(=O)N[C@@H](Cc2ccccc2)C(=O)N2CCC[C@H]2C(=O)N(C)[C@H](C)C(=O)N1C is reported with PAMPA -6.82 (log10 cm/s).
CCCN1CC(=O)N[C@H](CC(C)C)C(=O)N(C)[C@H](CC(C)C)C(=O)N2CCC[C@@H]2C(=O)N[C@H](CC(C)C)C(=O)N[C@@H](Cc2ccccc2)C(=O)N2CCC[C@H]2C1=O is reported with PAMPA -5.31 (log10 cm/s).
CC(C)C[C@@H]1C(=O)N(C)[C@@H](CC(C)C)C(=O)N2CCC[C@H]2C(=O)N(Cc2ccccc2)CC(=O)N[C@@H](Cc2ccccc2)C(=O)N2CCC[C@H]2C(=O)N(C)[C@H](C)C(=O)N1C is reported with PAMPA -5.70 (log10 cm/s).
CC(C)C[C@H]1C(=O)N2CCC[C@H]2C(=O)N(C)[C@@H](CC(C)C)C(=O)N[C@@H](Cc2ccccc2)C(=O)N2CCC[C@H]2C(=O)N(C)[C@H](C)C(=O)N(Cc2ccccc2)CC(=O)N1C is reported with PAMPA -5.45 (log10 cm/s).
CC(C)C[C@@H]1C(=O)N[C@@H](Cc2ccccc2)C(=O)N[C@@H](C)C(=O)N(C)[C@@H](CC(C)C)C(=O)N(Cc2ccccc2)CC(=O)N2CCC[C@@H]2C(=O)N1C is reported with PAMPA -6.22 (log10 cm/s).
CC(C)C[C@@H]1NC(=O)[C@@H]2CCCN2C(=O)CN(Cc2ccccc2)C(=O)[C@@H](CC(C)C)NC(=O)[C@H](C)NC(=O)[C@@H]2CCCN2C(=O)[C@H](Cc2ccccc2)NC1=O is reported with PAMPA -6.28 (log10 cm/s).
CC(C)C[C@@H]1C(=O)N2CCC[C@H]2C(=O)N(C)[C@H](CC(C)C)C(=O)N[C@@H](Cc2ccccc2)C(=O)N[C@H](C)C(=O)N(Cc2ccccc2)CC(=O)N1C is reported with PAMPA -5.44 (log10 cm/s).
CC(C)C[C@H]1C(=O)N[C@@H](Cc2ccccc2)C(=O)N2CCC[C@@H]2C(=O)N[C@H](C)C(=O)N(C)[C@@H](CC(C)C)C(=O)N(C)[C@@H](CC(C)C)C(=O)N2CCC[C@@H]2C(=O)N1C is reported with PAMPA -5.34 (log10 cm/s).

2 of these entries, quoted again:

structure (SMILES)	PAMPA (log10 cm/s)
CC(C)C[C@@H]1NC(=O)[C@@H](CC(C)C)N(C)C(=O)[C@H](C)NC(=O)[C@H](Cc2ccccc2)NC(=O)[C@H](CC(C)C)N(C)C(=O)[C@H]2CCCN2C1=O	-4.89
CC(C)C[C@@H]1NC(=O)[C@@H](C)N(C)C(=O)[C@H](Cc2ccccc2)NC(=O)[C@H](CC(C)C)N(C)C(=O)[C@H]2CCCN2C(=O)CN(Cc2ccccc2)C1=O	-5.14